The Emax is the maximal effect, on the per cent scale that the assay sets.

The source of these data is article PMC12828543, “Preclinical drug screen identifies WEE1 inhibitor and vinca alkaloid as a combination treatment concept for Li-Fraumeni syndrome medulloblastoma” (iScience, 2025).

The assay concerns SJ-GBM2. In words: Validation in established cell lines (0.1-10,000 nM, triplicates, 72 h, CellTiter-Glo 2.0). The class given is cell-based. The settings on record: Homo sapiens, read-out: SJ-GBM2 Emax. The method, then: . Following 72-hour exposure cell viability was measured using CellTiter-Glo 2.0 Assay (cat.no. G9241, Promega) and the Spark microplate reader (Tecan).
DSS3 (single drug screen and validation steps) and Emax (validation step only) were estimated based on four-parameter logistic curves.
(In ATP-based viability assays light output follows the ATP content of the culture.)

For `C[C@@H]1COCCN1c1cc(-c2ccnn2C)c2ccnc(-c3ccn[nH]3)c2n1` [BAY-1895344], the Emax is 95.3%.
